These results are taken from ChEMBL document CHEMBL2417538, “Antithrombotic effects of LB30870, a potent, orally active, selective and direct thrombin inhibitor, and pharmacokinetics of its prodrug” (Bioorg Med Chem Lett, 2013).

Test [1] has as its target T1, Prothrombin (Homo sapiens, UniProt P00734). Nature of the test: Inhibition of free thrombin (unknown origin) using S2238 as substrate.
The target in test [2] is T1, Prothrombin. Nature of the test: Inhibition of plasma clot-bound thrombin (unknown origin) using S2238 as substrate.
In test [3] the target is T1, Prothrombin. Put plainly: Binding affinity to thrombin (unknown origin) by surface plasmon resonance analysis. Background: SPR reads the build-up and loss of mass on a sensor chip optically.
For test [4], the target named is T1, Prothrombin. Nature of the test: Inhibition of human thrombin.
In test [5] the target is T1, Prothrombin. Put plainly: Inhibition of thrombin (unknown origin) assessed as fibrin clot formation.

In the case of `CC1CNc2c(cccc2S(=O)(=O)N[C@@H](CCCNC(=N)N)C(=O)N2CC[C@@H](C)C[C@@H]2C(=O)O)C1` (stereo not given in full) [ARGATROBAN], the IC50 on Prothrombin [1] worked out at 10.6 nM; on Prothrombin [2], 92.4 nM; on Prothrombin [5], 1580 nM. On Prothrombin [3], this molecule came in with a dissociation constant Kd of 2.42 nM. Besides, the affinity on Prothrombin [4], expressed as Ki, was 4.5 nM.

The IC50 is the concentration at which inhibition is half-maximal. Usually Kd stands for the constant that tells how readily two partners part at equilibrium. A high value points to a looser complex. What is called Ki is a measure of affinity in units of concentration, obtained from inhibition or displacement.
